# Measured values from patent US12139488B2, “Pyrido[3,2-d]pyrimidine compounds uses thereof for treating a proliferative disease” (Universite de Montreal, priority 2021, dated 2024).
# Key:
# [1] = tested on: pERK in Lovo cells (KRAS-G13D); experiment: Phospho-ERK inhibition (AlphaLISA), Lovo; settings: for IC50: read-out: Lovo pERK IC50; for Lovo pERK % Ymin: value in parentheses
# Experimental: (§1) All cancer cell lines (A375, A101D, A2058, RKO, HT29 SK-MEL 30, IPC298, HepG2, HCT-116, Lovo, SWV620, SW480, NCI-H358, NCI-H2122, Calu-6, NCIH2087, NCIH1755, NCIH1666 and Mewo) were obtained from ATCC and cultured in RPMI-1640 medium (Gibco) supplemented with 5% heat inactivated fetal bovine serum (FBS, Wisent) at 37° C. under 5% CO2. Cells were maintained in T175 flasks (Greiner). They were passaged by removing the culture medium, washing once in 10 mL of room temperature Phosphate Buffered Saline (PBS; Wisent) and incubating at 37° C. with 2 mL of 0.05% Trypsin (Thermo-Fisher). Trypsin was then inactivated by adding complete growth medium and the cells were then replated in a T175 culture dish at the appropriate dilution. All cell lines were routinely tested for mycoplasma contamination. Tissue type and mutational status of each cell line can be found in Table B.
# (§2) AlphaLISA® SureFire® Ultra™ p-ERK 1/2 (Thr202/Tyr204) analysis was conducted on cells plated in 100 μL of complete RPMI-1640 growth medium in 96-well flat-bottomed transparent dishes (Costar) at a density indicated in Table C. Cells were maintained overnight at 37° C. under 5% CO2 before treatment with compounds' dilution series for one hour. The cell density in cells/cm^2 corresponds to cell number divided by the area of one well of a 96-well plate ([…]).
# (§3) In a dilution series 100 μL/well of test substance dilution prepared in complete RPMI-1640 growth media was added to the cells. The dilution series is selected so that ten concentrations cover a range from 10 μM to 0.33 nM. If necessary the initial concentration of 10 μM is increased to 100 μM or lowered to 1 μM (as in the case of A375 and H1666 cells, which are generally more sensitive to the compounds) and further dilution is carried out accordingly. The final concentration of DMSO in the assay is set at 0.5%.
# (§4) After treatment, media was removed and cells were lysed in 50 μL of 1× AlphaScreen Ultra Lysis Buffer (Perkin Elmer). The AlphaLISA® SureFire® Ultra™ p-ERK 1/2 (Thr202/Tyr2O4) (PerkinElmer) reactions were performed with 5 μL of cell lysate according to the manufacturer's specifications in 384-well proxyplates (Perkin Elmer) followed by overnight incubation of the reactions at room temperature in a humidified chamber. After completion of the reactions, the signals were recorded on an EnVision plate reader (Perkin Elmer) using built in AlphaLISA® settings.
# (§5) The effect of each compound dilution on the pERK signal was expressed in % inhibition and calculated as follows. An internal 100% inhibition control (1 M trametinib, cat #HY-10999; MedChem Express; CAS #871700-17-3) was included in each plate and used as a measure of pERK background. First, the value obtained for trametinib was subtracted from each data point. The average of DMSO (vehicle) controls (set as 0% inhibition) was established and used to calculate % inhibition: % inhibition=100*(1-((pERK signalcompound)/(pERK signalDMSO)))
# (§6) The ability of each compound to inhibit pERK signal was expressed as an IC50 value obtained by plotting the inhibition values for each data point of a dilution series and fitting the obtained curves using a log(agonist) versus response-variable slope (four parameters) function using GraphPadPrism (V7.0) or Dotmatics Screening Ultra platform.
# (§7) When present, paradoxical pERK induction is inferred from the negative % inhibition values observed in the pERK IC50 curves of a compound.
# HepG2 cells (NRAS-Q61L) = experiment: Proliferation inhibition (CellTiter-Glo), HepG2; settings: read-out: HepG2 Prolif. EC50; HepG2, 3 days
# Experimental: as §1
# (§8) CellTiter-Glo® viability analysis was conducted on cells plated in 100 μL of complete RPMI-1640 growth medium in 96-well flat-bottomed white opaque plates (Greiner or Croning) at a density indicated in Table E (for each CCL, number of cells plated per well of a 96-well plate to perform the CellTiter-Glo® cell viability assay). The cell density in cells/cm^2 would correspond to cell number divided by the area of one well of a 96-well plate (0.32 cm^2). Cells were maintained overnight at 37° C. under 5% CO2 before treatment with compounds' dilution series for 3 days.
# (§9) In a dilution series 100 μL/well of test substance dilution prepared in complete RPMI-1640 growth media was added to the cells plated initially in 100 μL of growth media. The dilution series is selected so that ten concentrations cover a range from 10 μM to 0.33 nM. If necessary (as in the case of A375 cells, which were more sensitive to the compounds) the initial concentration of 10 μM is lowered to 1 μM and further dilution is carried out accordingly. The final concentration of DMSO in the assay is set at is 0.5%.
# (§10) After 3 days of incubation, the growth media were removed by aspiration and 60 μL of diluted CellTiter-Glo® reagent (10 μL CellTiter-Glo® reagent+50 μL of PBS) was added to each well. Cells were allowed to lyse and to equilibrate in CellTiter-Glo® reagent by 5 min incubation on a plate shaker followed by 10 min incubation at room temperature. Luminescence signals were then acquired on a Synergy Neo2 plate reader (Biotek).
# as §5, with “proliferation of cancer cell lines” for “pERK signal”, “μM of trametinib;” for “M trametinib,”, “CellTiter-Glo® signal” for “pERK”, “The” for “First, the”, “inhibition=100*(1−((CellTiter-Glo® signalcompound)/(CellTiter-Glo®” for “inhibition=100*(1-((pERK signalcompound)/(pERK”
# as §6, with “proliferation” for “pERK signal”, “a EC50” for “an IC50”, “effect” for “inhibition”
# [2] = tested on: NCIH1755 cells (BRAF G469A); experiment: Proliferation inhibition (CellTiter-Glo), NCIH1755; settings: read-out: NCIH1755 Prolif. EC50; NCIH1755, 3 days
# Experimental: as §1, §8, §9, §10
# as §5, with “proliferation of cancer cell lines” for “pERK signal”, “μM of trametinib;” for “M trametinib,”, “CellTiter-Glo® signal” for “pERK”, “The” for “First, the”, “inhibition=100*(1−((CellTiter-Glo® signalcompound)/(CellTiter-Glo®” for “inhibition=100*(1-((pERK signalcompound)/(pERK”
# as §6, with “proliferation” for “pERK signal”, “a EC50” for “an IC50”, “effect” for “inhibition”
# Mewo cells (NF1 LOF) = experiment: Proliferation inhibition (CellTiter-Glo), Mewo; settings: read-out: Mewo Prolif. EC50, 3 days
# Experimental: as §1, §8, §9, §10
# as §5, with “proliferation of cancer cell lines” for “pERK signal”, “μM of trametinib;” for “M trametinib,”, “CellTiter-Glo® signal” for “pERK”, “The” for “First, the”, “inhibition=100*(1−((CellTiter-Glo® signalcompound)/(CellTiter-Glo®” for “inhibition=100*(1-((pERK signalcompound)/(pERK”
# as §6, with “proliferation” for “pERK signal”, “a EC50” for “an IC50”, “effect” for “inhibition”
# SW480 cells (KRAS G12D) = experiment: Proliferation inhibition (CellTiter-Glo), SW480; settings: read-out: SW480 Prolif. EC50; SW480, 3 days
# Experimental: as §1, §8, §9, §10
# as §5, with “proliferation of cancer cell lines” for “pERK signal”, “μM of trametinib;” for “M trametinib,”, “CellTiter-Glo® signal” for “pERK”, “The” for “First, the”, “inhibition=100*(1−((CellTiter-Glo® signalcompound)/(CellTiter-Glo®” for “inhibition=100*(1-((pERK signalcompound)/(pERK”
# as §6, with “proliferation” for “pERK signal”, “a EC50” for “an IC50”, “effect” for “inhibition”
# [3] = tested on: pERK in SW480 cells (KRAS G12D); experiment: Phospho-ERK inhibition (AlphaLISA), SW480; settings: for SW480 pERK % Ymin: SW480, Table D, value in parentheses; for SW480 pERK % Ymin (lowest value of the IC50 curve): SW480 cells, Ymin above −20% = minimal or no paradoxical activation
# Experimental: as §1, §2, §3, §4, §5, §6, §7
SMILES,IC50 [1],EC50 (HepG2 cells (NRAS-Q61L)),EC50 (SW480 cells (KRAS G12D)),SW480 pERK % Ymin (lowest value of the IC50 curve) [3],Lovo pERK % Ymin [1],EC50 [2],EC50 (Mewo cells (NF1 LOF)),SW480 pERK % Ymin [3]
CS(=O)(=O)C1CCN(c2cccc3c2nnn3-c2ccc3ncnc(Nc4c(F)ccc(NS(=O)(=O)c5cccc(Cl)c5Cl)c4F)c3n2)CC1,< 30 nM,< 30 nM,> 3000 nM,2%,25%,< 30 nM,300 to 3000 nM,2%
Cc1c(F)cccc1S(=O)(=O)Nc1ccc(F)c(Nc2ncnc3ccc(-n4cnc5c(-c6cccnc6)cccc54)nc23)c1F,30 to 300 nM,< 30 nM,300 to 3000 nM,–,15%,300 to 3000 nM,300 to 3000 nM,14%
Cc1c(Cl)csc1S(=O)(=O)Nc1ccc(F)c(Nc2ncnc3ccc(-n4cc(S(=O)(=O)N(C)CCN(C)C)c5ccccc54)nc23)c1F,30 to 300 nM,< 30 nM,300 to 3000 nM,2%,−17%,300 to 3000 nM,< 30 nM,2%
O=S(=O)(Nc1ccc(F)c(Nc2ncnc3ccc(-n4cnc5c(N6CCC7(CCCC7)CC6)cccc54)nc23)c1F)c1cccc(Cl)c1Cl,30 to 300 nM,< 30 nM,300 to 3000 nM,5%,−5%,< 30 nM,< 30 nM,5%
COCCOc1cccc2c1nnn2-c1ccc2ncnc(Nc3c(F)ccc(NS(=O)(=O)c4cccc(Cl)c4Cl)c3F)c2n1,30 to 300 nM,< 30 nM,300 to 3000 nM,6%,−12%,< 30 nM,< 30 nM,−6%

# Continued, in another order:
IC50 [1],EC50 (HepG2 cells (NRAS-Q61L)),EC50 (SW480 cells (KRAS G12D)),SW480 pERK % Ymin (lowest value of the IC50 curve) [3],SMILES,Lovo pERK % Ymin [1],EC50 [2],EC50 (Mewo cells (NF1 LOF)),SW480 pERK % Ymin [3]
30 to 300 nM,< 30 nM,300 to 3000 nM,–,O=S(=O)(CCCN1CCOCC1)c1cn(-c2ccc3ncnc(Nc4c(F)ccc(NS(=O)(=O)c5cccc(Cl)c5Cl)c4F)c3n2)c2ccccc12,−11%,300 to 3000 nM,< 30 nM,4%
30 to 300 nM,< 30 nM,300 to 3000 nM,–,Cc1c(Cl)cccc1S(=O)(=O)Nc1ccc(F)c(Nc2ncnc3ccc(-n4cc(C(=O)N5CCN(C)CC5)c5ccccc54)nc23)c1F,0%,300 to 3000 nM,300 to 3000 nM,−1%
